Values quoted from earlier work in US20240299593A1, “SYSTEMS AND METHODS FOR GENERATION OF HYPERPOLARIZED MATERIALS” (NVISION IMAGING TECHNOLOGIES GMBH, priority 2021, published 2024).

Details: ICH toxicity limits, residual solvent; cited from earlier work

Compound: C[N+](=O)[O-]
- Permissible Daily Exposure: 0.5 mg/day
